Reference: paper PMC5748754, “Elucidating the Skin Delivery of Aglycone and Glycoside Flavonoids: How the Structures Affect Cutaneous Absorption” (Nutrients, 2017)

Test: Partition coefficient (log P), n-octanol/water
Assay type: physicochemical
Conditions: 37 °C
Procedure: Flavonoids in methanol (0.5 mg/mL) were pipetted into a tube at a volume of 1 mL. Methanol was then evaporated under vacuum. In the amount of 1 mL of each, n-Octanol and water were incorporated into the tube. After being shaken for 24 h at 37 °C, the tube was centrifugated at 10,000× g for 10 min. The flavonoid content in both phases was analyzed by HPLC. The log P was calculated as log (flavonoid content in n-octanol/flavonoid content in water).

C[C@@H]1O[C@@H](OC[C@H]2O[C@@H](Oc3c(-c4ccc(O)c(O)c4)oc4cc(O)cc(O)c4c3=O)[C@H](O)[C@@H](O)[C@@H]2O)[C@H](O)[C@H](O)[C@H]1O [Rutin]
logP at 24 h: 0.76 ± 0.22
